Assay results published in ChEMBL document CHEMBL4359863, “Structure-guided development of purine amide, hydroxamate, and amidoxime for the inhibition of non-small cell lung cancer” (Eur J Med Chem, 2019).

Sequences of proteins named here, by UniProt entry; tags and fusion partners are left off. A change or cut given only in a name is not applied to a line headed by its entry.
UniProt P08631: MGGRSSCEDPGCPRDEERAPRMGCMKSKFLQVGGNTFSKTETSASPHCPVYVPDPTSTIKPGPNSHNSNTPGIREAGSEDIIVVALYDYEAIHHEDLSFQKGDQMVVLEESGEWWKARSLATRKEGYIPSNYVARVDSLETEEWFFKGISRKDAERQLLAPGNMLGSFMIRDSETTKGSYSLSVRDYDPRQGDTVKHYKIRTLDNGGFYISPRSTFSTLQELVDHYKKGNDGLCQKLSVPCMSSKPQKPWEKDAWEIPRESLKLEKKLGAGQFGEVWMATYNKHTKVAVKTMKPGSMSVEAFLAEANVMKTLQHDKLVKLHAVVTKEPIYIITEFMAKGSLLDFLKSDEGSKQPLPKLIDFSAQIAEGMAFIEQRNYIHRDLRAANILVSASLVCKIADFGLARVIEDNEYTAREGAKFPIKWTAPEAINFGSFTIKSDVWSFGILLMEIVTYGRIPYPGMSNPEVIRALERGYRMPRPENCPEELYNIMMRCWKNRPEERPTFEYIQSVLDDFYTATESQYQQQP
UniProt P06241, whole entry, looked up: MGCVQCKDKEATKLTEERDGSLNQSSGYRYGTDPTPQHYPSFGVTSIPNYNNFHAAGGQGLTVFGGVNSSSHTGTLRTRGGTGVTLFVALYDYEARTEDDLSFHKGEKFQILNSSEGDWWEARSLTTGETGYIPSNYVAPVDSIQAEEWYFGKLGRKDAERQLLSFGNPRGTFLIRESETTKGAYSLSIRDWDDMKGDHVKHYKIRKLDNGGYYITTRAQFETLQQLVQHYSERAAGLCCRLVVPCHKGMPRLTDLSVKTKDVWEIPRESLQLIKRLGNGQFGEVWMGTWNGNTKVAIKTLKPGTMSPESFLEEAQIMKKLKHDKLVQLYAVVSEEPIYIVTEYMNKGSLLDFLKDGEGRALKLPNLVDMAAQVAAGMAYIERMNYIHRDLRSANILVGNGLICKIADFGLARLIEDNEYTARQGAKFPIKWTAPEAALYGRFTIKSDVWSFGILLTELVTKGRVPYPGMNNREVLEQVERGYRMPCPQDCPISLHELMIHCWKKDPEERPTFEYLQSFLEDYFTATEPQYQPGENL
UniProt O96017, whole entry: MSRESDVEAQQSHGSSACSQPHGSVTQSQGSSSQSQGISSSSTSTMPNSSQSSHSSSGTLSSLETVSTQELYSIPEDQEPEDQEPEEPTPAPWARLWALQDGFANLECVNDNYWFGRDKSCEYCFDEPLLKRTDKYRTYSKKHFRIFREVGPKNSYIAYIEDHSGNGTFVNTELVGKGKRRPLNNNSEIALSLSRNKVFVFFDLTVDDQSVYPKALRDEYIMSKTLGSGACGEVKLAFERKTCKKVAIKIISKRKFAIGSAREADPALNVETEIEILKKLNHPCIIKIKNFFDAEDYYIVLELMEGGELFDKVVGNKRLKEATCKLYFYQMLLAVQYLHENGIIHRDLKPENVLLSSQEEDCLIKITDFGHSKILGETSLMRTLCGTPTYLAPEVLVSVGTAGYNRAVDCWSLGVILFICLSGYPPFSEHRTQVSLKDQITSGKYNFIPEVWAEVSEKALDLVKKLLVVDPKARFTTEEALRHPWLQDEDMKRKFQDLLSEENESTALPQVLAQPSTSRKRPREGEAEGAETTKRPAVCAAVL
UniProt P07948: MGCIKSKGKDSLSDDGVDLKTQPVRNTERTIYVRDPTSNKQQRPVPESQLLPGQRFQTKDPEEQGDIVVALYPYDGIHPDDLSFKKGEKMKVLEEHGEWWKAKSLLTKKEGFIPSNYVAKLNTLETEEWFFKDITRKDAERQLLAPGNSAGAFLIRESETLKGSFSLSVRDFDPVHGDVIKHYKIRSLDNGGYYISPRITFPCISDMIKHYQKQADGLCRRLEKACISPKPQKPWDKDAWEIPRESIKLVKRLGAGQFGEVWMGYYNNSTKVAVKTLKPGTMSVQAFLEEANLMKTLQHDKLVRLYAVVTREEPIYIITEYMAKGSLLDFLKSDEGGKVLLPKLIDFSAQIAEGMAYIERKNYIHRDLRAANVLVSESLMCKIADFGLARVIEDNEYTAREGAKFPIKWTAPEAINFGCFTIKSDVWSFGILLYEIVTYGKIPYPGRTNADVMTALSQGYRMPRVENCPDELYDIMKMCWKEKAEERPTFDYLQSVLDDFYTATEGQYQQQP
UniProt P19174: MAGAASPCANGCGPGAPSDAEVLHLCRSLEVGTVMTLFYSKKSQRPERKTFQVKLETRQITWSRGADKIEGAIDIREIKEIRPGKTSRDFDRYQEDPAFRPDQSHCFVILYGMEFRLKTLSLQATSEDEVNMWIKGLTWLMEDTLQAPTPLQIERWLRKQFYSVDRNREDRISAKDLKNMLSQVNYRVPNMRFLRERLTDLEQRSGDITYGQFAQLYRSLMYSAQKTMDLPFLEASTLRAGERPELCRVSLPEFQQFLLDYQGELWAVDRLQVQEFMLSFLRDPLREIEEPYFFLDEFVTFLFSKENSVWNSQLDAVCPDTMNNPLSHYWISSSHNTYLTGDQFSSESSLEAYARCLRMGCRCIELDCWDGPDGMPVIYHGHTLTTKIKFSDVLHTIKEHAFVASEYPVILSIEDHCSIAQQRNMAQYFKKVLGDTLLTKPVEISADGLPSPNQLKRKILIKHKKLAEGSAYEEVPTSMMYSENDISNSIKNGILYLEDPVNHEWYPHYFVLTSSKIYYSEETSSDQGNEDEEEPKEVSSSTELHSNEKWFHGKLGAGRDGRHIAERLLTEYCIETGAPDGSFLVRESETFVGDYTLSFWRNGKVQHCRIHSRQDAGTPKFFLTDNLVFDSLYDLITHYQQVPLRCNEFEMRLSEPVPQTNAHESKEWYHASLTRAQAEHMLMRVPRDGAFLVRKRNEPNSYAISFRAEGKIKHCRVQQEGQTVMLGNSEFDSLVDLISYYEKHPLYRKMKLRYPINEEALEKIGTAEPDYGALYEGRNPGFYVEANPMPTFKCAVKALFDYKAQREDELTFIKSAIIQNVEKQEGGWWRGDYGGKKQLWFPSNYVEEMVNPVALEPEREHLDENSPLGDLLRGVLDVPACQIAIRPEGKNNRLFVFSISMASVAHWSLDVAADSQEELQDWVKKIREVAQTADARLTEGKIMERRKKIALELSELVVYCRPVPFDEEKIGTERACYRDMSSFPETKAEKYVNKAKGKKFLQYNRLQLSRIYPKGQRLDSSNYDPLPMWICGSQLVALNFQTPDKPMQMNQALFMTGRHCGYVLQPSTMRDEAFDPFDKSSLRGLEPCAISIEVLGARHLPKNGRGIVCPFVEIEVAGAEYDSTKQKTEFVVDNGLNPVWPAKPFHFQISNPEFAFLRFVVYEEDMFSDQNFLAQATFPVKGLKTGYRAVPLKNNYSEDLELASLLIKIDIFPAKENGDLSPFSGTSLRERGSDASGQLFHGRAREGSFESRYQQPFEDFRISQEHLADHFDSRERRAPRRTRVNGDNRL
UniProt P04637, whole entry, looked up: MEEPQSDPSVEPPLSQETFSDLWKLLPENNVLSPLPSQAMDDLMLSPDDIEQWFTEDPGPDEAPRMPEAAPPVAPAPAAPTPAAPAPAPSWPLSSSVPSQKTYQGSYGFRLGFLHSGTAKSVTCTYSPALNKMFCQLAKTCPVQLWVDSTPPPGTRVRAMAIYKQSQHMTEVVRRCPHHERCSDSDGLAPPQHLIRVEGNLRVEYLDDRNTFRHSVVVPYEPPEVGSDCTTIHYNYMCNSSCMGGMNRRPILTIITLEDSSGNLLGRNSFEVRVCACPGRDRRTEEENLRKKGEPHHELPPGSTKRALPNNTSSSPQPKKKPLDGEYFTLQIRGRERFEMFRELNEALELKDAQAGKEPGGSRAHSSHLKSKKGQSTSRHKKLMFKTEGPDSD

Legend:
Assay type in all cases: cell-based
[1] = target: Tyrosine-protein kinase HCK (Homo sapiens) (UniProt P08631); experiment: Effect on Hck at Y411 phosphorylation level in human NCI-H1975 incubated for 12 hrs by human phosphokinase proteome profiler array relative to control
[2] = target: Tyrosine-protein kinase Fyn (Homo sapiens) (UniProt P06241); experiment: Effect on FYN at Y420 phosphorylation level in human NCI-H1975 incubated for 12 hrs by human phosphokinase proteome profiler array relative to control
[3] = target: Serine/threonine-protein kinase mTOR (Homo sapiens) (UniProt P42345); experiment: Effect on mTOR at S2448 phosphorylation level in human NCI-H1975 incubated for 12 hrs by human phosphokinase proteome profiler array relative to control
[4] = target: Serine/threonine-protein kinase Chk2 (Homo sapiens) (UniProt O96017); experiment: Effect on CHK2 at T68 phosphorylation level in human NCI-H1975 incubated for 12 hrs by human phosphokinase proteome profiler array relative to control
[5] = target: Tyrosine-protein kinase Lyn (Homo sapiens) (UniProt P07948); experiment: Effect on LYN at Y397 phosphorylation level in human NCI-H1975 incubated for 12 hrs by human phosphokinase proteome profiler array relative to control
[6] = target: Tyrosine-protein kinase HCK (Homo sapiens) (UniProt P08631); experiment: Effect on Hck at Y411 phosphorylation level in human NCI-H1975 incubated for 12 hrs by human phosphokinase proteome profiler array relative to beta-catenin
[7] = target: 1-phosphatidylinositol 4,5-bisphosphate phosphodiesterase gamma-1 (Homo sapiens) (UniProt P19174); experiment: Effect on PLCgamma1 at Y783 phosphorylation level in human NCI-H1975 incubated for 12 hrs by human phosphokinase proteome profiler array relative to beta-catenin
[8] = target: Cellular tumor antigen p53 (Homo sapiens) (UniProt P04637); experiment: Effect on p53 at S15 phosphorylation level in human NCI-H1975 incubated for 12 hrs by human phosphokinase proteome profiler array relative to beta-catenin
[9] = target: T1, Signal transducer and activator of transcription 5B (Homo sapiens) (UniProt P51692); experiment: Effect on STAT5b at Y699 phosphorylation level in human NCI-H1975 incubated for 12 hrs by human phosphokinase proteome profiler array relative to beta-catenin
T1 sequence (whole entry): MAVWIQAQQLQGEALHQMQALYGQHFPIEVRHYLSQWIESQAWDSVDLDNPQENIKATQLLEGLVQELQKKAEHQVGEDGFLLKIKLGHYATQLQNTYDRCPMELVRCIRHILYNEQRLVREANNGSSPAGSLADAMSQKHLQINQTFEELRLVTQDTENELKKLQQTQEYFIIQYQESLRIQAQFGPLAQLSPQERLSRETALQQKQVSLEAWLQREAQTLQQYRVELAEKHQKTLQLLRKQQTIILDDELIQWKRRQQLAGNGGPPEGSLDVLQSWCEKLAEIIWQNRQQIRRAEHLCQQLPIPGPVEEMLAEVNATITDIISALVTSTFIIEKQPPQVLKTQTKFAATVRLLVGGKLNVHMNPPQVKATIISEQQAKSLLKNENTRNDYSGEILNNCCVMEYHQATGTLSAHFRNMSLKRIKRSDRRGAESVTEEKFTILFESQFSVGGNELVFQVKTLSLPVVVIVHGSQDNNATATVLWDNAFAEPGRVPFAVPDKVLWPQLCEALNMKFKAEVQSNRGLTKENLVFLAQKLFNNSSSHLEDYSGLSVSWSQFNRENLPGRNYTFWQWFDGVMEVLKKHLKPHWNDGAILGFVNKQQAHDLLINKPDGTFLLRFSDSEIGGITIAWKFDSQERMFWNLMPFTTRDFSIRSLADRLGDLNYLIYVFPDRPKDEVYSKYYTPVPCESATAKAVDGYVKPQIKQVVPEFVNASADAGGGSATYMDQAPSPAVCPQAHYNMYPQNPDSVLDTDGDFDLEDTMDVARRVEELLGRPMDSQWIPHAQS

[10] = target: T2, Signal transducer and activator of transcription 5A (Homo sapiens) (UniProt P42229); experiment: Effect on STAT5a at Y694 phosphorylation level in human NCI-H1975 incubated for 12 hrs by human phosphokinase proteome profiler array relative to beta-catenin
T2 sequence (whole entry): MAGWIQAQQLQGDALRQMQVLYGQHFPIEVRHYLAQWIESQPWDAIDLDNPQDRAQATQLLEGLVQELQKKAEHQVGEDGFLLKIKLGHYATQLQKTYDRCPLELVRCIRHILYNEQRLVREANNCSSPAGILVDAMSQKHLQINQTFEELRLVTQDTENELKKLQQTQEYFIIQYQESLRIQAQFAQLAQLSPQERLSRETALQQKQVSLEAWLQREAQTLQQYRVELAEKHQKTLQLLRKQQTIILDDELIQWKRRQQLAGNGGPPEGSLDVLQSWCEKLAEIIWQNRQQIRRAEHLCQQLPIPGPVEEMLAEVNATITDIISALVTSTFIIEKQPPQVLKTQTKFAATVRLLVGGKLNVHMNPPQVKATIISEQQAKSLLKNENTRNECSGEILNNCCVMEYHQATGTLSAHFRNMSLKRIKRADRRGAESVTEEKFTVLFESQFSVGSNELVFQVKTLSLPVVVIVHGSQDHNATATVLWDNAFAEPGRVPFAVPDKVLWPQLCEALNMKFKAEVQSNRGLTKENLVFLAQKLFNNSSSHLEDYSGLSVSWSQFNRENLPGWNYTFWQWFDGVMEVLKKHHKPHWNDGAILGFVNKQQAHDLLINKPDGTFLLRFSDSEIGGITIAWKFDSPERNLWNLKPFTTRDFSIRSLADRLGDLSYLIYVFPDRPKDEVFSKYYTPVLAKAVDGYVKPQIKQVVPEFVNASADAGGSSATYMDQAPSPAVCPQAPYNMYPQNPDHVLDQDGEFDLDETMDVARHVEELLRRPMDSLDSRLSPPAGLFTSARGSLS

SMILES | fold change (FC) [1] | fold change (FC) [2] | fold change (FC) [3] | fold change (FC) [4] | fold change (FC) [5] | fold change (FC) [6] | fold change (FC) [7] | fold change (FC) [8] | fold change (FC) [9] | fold change (FC) [10]
CCOc1ccc(-c2nc(/C(N)=N/O)c3[nH]c(=O)n(-c4ccccc4OC)c3n2)cc1 | 0.66 | 0.75 | 0.86 | 0.73 | 0.72 | 0.78 | 1.83 | 1.6 | 1.02 | 0.91
CCOc1ccc(-c2nc(C(=O)NO)c3[nH]c(=O)n(-c4ccccc4OC)c3n2)cc1 | 0.75 | 0.8 | 0.73 | 0.87 | 0.65 | 0.84 | 1.62 | 0.93 | 0.88 | 0.75
